# Reference: paper PMC4532598 (European journal of pharmacology, 2015)
# Sequences of proteins named here, by UniProt entry; tags and fusion partners are left off. A change or cut given only in a name is not applied to a line headed by its entry.
# UniProt P33534: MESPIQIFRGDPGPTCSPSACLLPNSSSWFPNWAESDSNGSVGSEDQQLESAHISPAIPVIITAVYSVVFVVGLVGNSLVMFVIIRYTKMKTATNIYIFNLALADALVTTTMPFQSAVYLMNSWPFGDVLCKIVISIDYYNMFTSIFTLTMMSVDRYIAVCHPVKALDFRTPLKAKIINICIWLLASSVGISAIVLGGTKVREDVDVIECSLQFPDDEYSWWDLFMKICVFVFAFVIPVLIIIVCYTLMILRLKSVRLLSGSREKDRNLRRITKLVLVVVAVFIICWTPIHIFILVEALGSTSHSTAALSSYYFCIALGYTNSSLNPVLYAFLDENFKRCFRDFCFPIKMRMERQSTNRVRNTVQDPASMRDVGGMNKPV
# Tests used:
# mKOP receptor [1] = target: T1, mKOP receptor (Mus musculus, UniProt P33534); assay: biochemical
# mKOP receptor [2] = target: T1, mKOP receptor; format: cell-based
smiles,measurement,setting,value
"CC(C)=CCN1CCC2(C)c3cc(O)ccc3CC1C2C (stereo not drawn) [Pentazocine, pentazocine]",EC50,"mKOP receptor [1]; [35S]GTPγS binding EC50, mean",62 nM
same,EC50,mKOP receptor [1]; [35S]GTPγS binding pEC50,61.7 nM
same,Internalization pEC50,mKOP receptor [2],No internalization
